These results are taken from patent publication US20080242600A1, “Backbone Cyclized Melanocortin Stimulating Hormone (Alpha Msh) Analogs” (priority 2005, published 2008).

By UniProt entry, the sequences of proteins in these tests, tags left out.
UniProt P32245, whole entry: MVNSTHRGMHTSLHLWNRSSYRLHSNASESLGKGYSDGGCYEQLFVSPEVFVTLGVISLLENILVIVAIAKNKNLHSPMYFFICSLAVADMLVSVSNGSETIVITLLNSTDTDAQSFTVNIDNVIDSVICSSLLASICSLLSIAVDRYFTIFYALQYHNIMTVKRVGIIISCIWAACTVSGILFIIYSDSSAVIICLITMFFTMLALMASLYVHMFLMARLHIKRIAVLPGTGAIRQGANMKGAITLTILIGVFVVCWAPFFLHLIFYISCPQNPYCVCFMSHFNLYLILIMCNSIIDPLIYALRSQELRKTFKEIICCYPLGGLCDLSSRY

The target in this assay is MC4R (Homo sapiens, UniProt P32245). Nature of the assay: Receptor binding assay (IC50 on the MC4R).

By IC50 is commonly meant the concentration that gives 50% inhibition. In turn, `N=C(N)NCCC[C@@H]1NC(=O)[C@@H](Cc2ccccc2)NC(=O)[C@H](Cc2ccccc2)NC(=O)c2ccc(cc2)C(=O)NCCN(CC(N)=O)C(=O)[C@H](Cc2c[nH]c3ccccc23)NC1=O` returned an IC50 of 0.1 µM.
